Values quoted from earlier work in patent US6372198B1, “Dentifrice for the mineralization and remineralization of teeth” (priority 2000, dated 2002).

System: dental caries
Conditions: incorporated in dentifrice formulations at a level of ca. 0.76%; clinical studies

sodium monofluorophosphate
reduction of dental caries: 17-38%
